Biological target: SARS-CoV-2 Mpro (Severe acute respiratory syndrome coronavirus 2, UniProt P0DTD1)
Experiment: biochemical
Details: read-out: % inhibition at 20 μM

| SMILES | inhibition at 20 µM |
| --- | --- |
| C=CC(=O)N(c1ccc(C(C)(C)C)cc1)C(C(=O)NC(C)(C)C)c1cccnc1 (centres unmarked) [Compound 27, N-(4-(tert-Butyl)phenyl)-N-(2-(tert-butylamino)-2-oxo-1-(pyridin-3-yl)ethyl)acrylamide] | 35% |
| C=CC(=O)N(c1ccc(C(C)(C)C)cc1)C(C(=O)NCc1ccccc1)c1cccnc1 (centres unmarked) [Compound 28, N-(2-(Benzylamino)-2-oxo-1-(pyridin-3-yl)ethyl)-N-(4-(tert-butyl)phenyl)acrylamide] | 23% |

Source: PMC10922772 (ACS infectious diseases, 2024)
